Source: patent US5478854A, “Deoxy taxols” (Bristol-Myers Squibb Company, priority 1994, dated 1995)

System: human colon carcinoma cells HCT-116/VM46
Assay: In vitro cytotoxicity (XTT assay), 72 h, HCT-116/VM46 multi-drug resistant cells
Assay type: cell-based
Conditions: for fold resistance relative to HCT116 cells: HCT-116/VM46 vs HCT-116, value in parentheses, 4320 min; for pIC50: read-out: IC50, drug concentration required to inhibit cell proliferation to 50% of untreated control, HCT-116/VM46 (teniposide-selected, multi-drug resistant), XTT, 72 h

Structure (SMILES) | fold resistance relative to HCT116 cells [fold] | pIC50
CC(=O)O[C@@]12CO[C@@H]1CC[C@@]1(C)C(=O)CC3=C(C)[C@@H](OC(=O)[C@H](O)[C@@H](NC(=O)OC(C)(C)C)c4ccccc4)C[C@@](O)([C@@H](OC(=O)c4ccccc4)[C@H]21)C3(C)C [Ic, N-Debenzoyl-N-t-butoxycarbonyl-7-deoxy-10-deoxy-10-desacetyloxytaxol] | 5.6 | 7.17
CC(=O)O[C@@]12CO[C@@H]1CC[C@@]1(C)C(=O)CC3=C(C)[C@@H](OC(=O)[C@H](O)[C@@H](NC(=O)c4ccccc4)c4ccccc4)C[C@@](O)([C@@H](OC(=O)c4ccccc4)[C@H]21)C3(C)C [Id, 7-Deoxy-10-desacetyloxytaxol] | 11 | 6.50

pIC50: −log10 of the molar value.
